The target in assay [1] is Structural capsid protein (Human immunodeficiency virus 1) (UniProt Q76129). Kind of assay: Binding affinity to monomeric HIV-1 NL4.3 capsid protein assessed as dissociation rate (Koff) by SPR assay. Particulars: filed as modulator.
For assay [2] the target is unchanged. Kind of assay: Binding affinity to monomeric HIV-1 NL4.3 capsid protein assessed as residence time by SPR assay. The settings on record: filed as modulator.
Assay [3] has the same target. Description: Binding affinity to hexameric HIV-1 NL4.3 capsid protein assessed as dissociation rate (Koff) by SPR assay. Particulars: filed as modulator.
The target is the same in assay [4]. Description: Binding affinity to hexameric HIV-1 NL4.3 capsid protein assessed as residence time by SPR assay. Particulars: filed as modulator.
Assay [5] shares this target. Kind of assay: Selectivity ratio of Kd for binding affinity to monomeric HIV-1 NL4.3 capsid protein to Kd for hexameric HIV-1 NL4.3 capsid protein.

Each structure is given as a SMILES string.

With `CN(C(=O)[C@H](Cc1cc(F)cc(F)c1)NC(=O)Cc1c[nH]c2cc(F)c(F)cc12)c1ccc2scnc2c1`, the K in assay [1] was 3.32 10^-2/s; in assay [3] it was 2.9 10^-3/s. Further, the TIME worked out at 0.00833 h in assay [2] and 0.0958 h in assay [4]. The Ratio in assay [5] stood at 0.87.
Turning to `CN(C(=O)[C@H](Cc1cc(F)cc(F)c1)NC(=O)Cc1c[nH]c2ccc(N)cc12)c1ccc2scnc2c1`, the K is 2.51 10^-2/s in assay [1] and 4.28 10^-3/s in assay [3]. In addition, the TIME in assay [2] is 0.011 h; in assay [4] it was 0.0648 h. For the same molecule, the Ratio in assay [5] stood at 2.07.
Regarding `CN(C(=O)[C@H](Cc1cc(F)cc(F)c1)NC(=O)Cc1c[nH]c2ccc([N+](=O)[O-])cc12)c1ccc2scnc2c1`, the values for the K in assay [1] and in assay [3] were 3.91 10^-2/s and 3.98 10^-3/s, respectively. Also, the TIME in assay [2] came out at 0.00717 h; in assay [4] it was 0.0698 h. Also, the Ratio in assay [5] was 1.74.
Regarding `CN(C(=O)[C@H](Cc1cc(F)cc(F)c1)NC(=O)Cc1c[nH]c2ccc(O)cc12)c1ccc2scnc2c1`, the results for the K in assay [1] and in assay [3] were 4.79 10^-2/s and 4.49 10^-3/s, respectively. Also, the values for the TIME in assay [2] and in assay [4] were 0.00583 h and 0.0618 h, respectively. The Ratio in assay [5] amounted to 3.3.
